# Binding of CDR-mutated scFvs to a peptide of the spike HR2 region

Target peptide (SARS-CoV-2 spike, HR2 region): PDVDLGDISGINAS

Parent: Ab-95, a human scFv built as VH, a 15-residue (Gly4Ser)3 linker, VL. Only the CDRs of the light chain vary.
VH: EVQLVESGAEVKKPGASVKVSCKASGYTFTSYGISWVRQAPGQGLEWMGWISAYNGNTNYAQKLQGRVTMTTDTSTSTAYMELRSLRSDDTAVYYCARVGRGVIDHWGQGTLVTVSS
VL: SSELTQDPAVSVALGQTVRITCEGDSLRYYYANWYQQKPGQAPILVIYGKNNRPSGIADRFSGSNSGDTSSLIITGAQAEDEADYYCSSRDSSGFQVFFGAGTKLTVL

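Phage display of a naive human antibody library on the peptide gave the parent. Variants in AAYL52 differ from the parent at up to three CDR positions; double and triple changes were sampled at random. AlphaSeq pools MATa yeast showing the antibodies with MATalpha yeast showing the peptide. Pairs that bind mate more often; barcode pairs of the diploids are counted by sequencing. Scores were corrected for input abundance and mapped to Kd with protein pairs of known affinity run in the same pool. Each pool was mated in three replicate cultures.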

Substitutions are numbered in sequence along the VL above, starting at 1 (not Kabat).
Numbers give log10(Kd / nM), so 0 is 1 nM and 3 is 1 µM. Smaller is tighter.
The mean shown is taken over the replicates in which the pair was detected.
"nd" marks a missing value. The strain was present, yet no cells mated with the target were sequenced in that replicate, which points to weak or no binding.
Parent in this assay: reference entry 2.31, copy in this library 2.25.
Background: pairings of library AAYL52 with three empty control strains gave a value in 28% of cases (median 3.91, 5th percentile 2.90). Values in that range, when seen in few replicates, are hard to tell from nonspecific mating. The control count says in how many pairings with the empty strains this scFv gave a signal, with their mean in brackets.

| changes | log10 Kd, replicates | mean, log10 nM | empty controls |
|---|---|---|---|
| Y29M A32N S89C | 5.26 4.06 nd | 4.66 | 2 of 9 (2.64) |
| D91R F95E V97E | nd nd nd | nd | 4 of 9 (3.68) |
| S26V L27I K50G | 3.34 4.57 3.02 | 3.64 | 3 of 9 (4.52) |
| D25C R28A S93L | nd nd nd | nd | 0 of 9 |
| Y30M Y31R F95I | 4.08 2.70 3.50 | 3.43 | 5 of 9 (4.16) |
| G49W K50N D91W | nd nd nd | nd | 1 of 9 (4.09) |
| G24F R90E | nd nd nd | nd | 0 of 9 |
| A32E N51K N52C | nd nd nd | nd | 5 of 9 (3.93) |
| D25A Y31I D91Q | 3.46 3.55 3.09 | 3.36 | 7 of 9 (4.65) |
| S26C A32T S88V | 4.54 3.66 nd | 4.10 | 3 of 9 (4.16) |
| P54K R90E F95C | 4.06 4.02 nd | 4.04 | 1 of 9 (4.89) |
| G24E K50N S93D | nd 4.95 nd | 4.95 | 2 of 9 (5.24) |
| L27P S89M Q96F | 4.82 nd 3.00 | 3.91 | 2 of 9 (4.38) |
| S26P S93F F95A | 3.68 2.78 3.00 | 3.15 | 2 of 9 (3.53) |
| N33Q S55Y V97G | 3.66 nd nd | 3.66 | 1 of 9 (3.48) |
| E23L N33E S88G | 5.36 nd nd | 5.36 | 3 of 9 (3.54) |
| R28H N33Q Q96T | 4.67 nd nd | 4.67 | 2 of 9 (3.48) |
| Y31I G94I Q96F | nd 3.54 2.71 | 3.13 | 3 of 9 (3.73) |
| E23V S26I R90G | 5.38 nd 4.21 | 4.79 | 5 of 9 (4.64) |
| L27G N51R S89N | nd nd nd | nd | 0 of 9 |
| R53S P54D F95Y | 3.06 3.23 2.82 | 3.04 | 4 of 9 (3.83) |
| Y30M K50G V97K | 1.86 1.62 1.43 | 1.64 | 4 of 9 (3.72) |
| S26N P54Q G94E | nd nd nd | nd | 2 of 9 (4.47) |
| E23N D25W S26H | 2.75 3.01 3.74 | 3.16 | 1 of 9 (3.72) |
| A32P K50R N52C | 2.98 2.56 2.68 | 2.74 | 2 of 9 (5.21) |
| D25K K50L F98L | 3.95 4.14 nd | 4.04 | 2 of 9 (4.42) |
| K50Y S92H V97Q | 3.24 4.49 3.71 | 3.81 | 2 of 9 (4.44) |
| Y29P Y30H F98P | 2.73 1.97 2.68 | 2.46 | 2 of 9 (3.31) |
| Y30F N33E S89I | 4.31 3.94 nd | 4.13 | 3 of 9 (3.79) |
| Y29L K50D F98N | 4.31 2.48 2.32 | 3.04 | 0 of 9 |

Values reported by Engelhart et al. 2022, doi:10.1038/s41597-022-01779-4 (FLAb copy).